For data set [1] the following is noted: cited from earlier work; for carcinogenicity / irritation / harm on contact or inhalation / hazard on ingestion: according to MSDS; for vapor pressure: in words; for recognized hazard of state-of-the-art propellant components: background statement.
Data set [2] in a line: Storage stability / propellant degradation over time. The note with it: Table 2, grade in words.
Data set [3] can be described thus: Dissolution of sodium borohydride in solvent. Conditions: in DMF.

In the case of `COCCOCCOCCOC`, in data set [1], the carcinogenicity result is “no recognizable carcinogens or toxins”, the “irritation / harm on contact or inhalation” value (“irritation / harm” below) was “may cause irritation” and the vapor pressure result is listed as “low”.

For the molecule nitrogen tetroxide, the “recognized hazard of state-of-the-art propellant components” value (shortened to “recognized hazard”) in data set [1] is “toxic and lethal upon acute exposure”.

With monomethylhydrazine, in data set [1] (Table 2), the Toxicity/Mutagenicty entry is “Both, with moderate”. Further, in data set [2], the “Low Temperature Storage” value is on record as “Good” and the “Room Temperature Storage” value is given as “Good”.

In the case of `O=[N+]([O-])O`, the “recognized hazard” value in data set [1] was “extremely corrosive”.

Consider sodium borohydride, for which the “concentration up to which sodium borohydride completely dissolves” value in data set [3] was “approximately 18 % by weight”. Moreover, in data set [1], the carcinogenicity entry is listed as “not carcinogenic”; the “irritation / harm” value is “capable of causing severe irritation and burns if eaten or let into contact with skin”.

Take `C[S+](C)[O-]`: in data set [1], the carcinogenicity result is listed as “no recognized carcinogenic components”, the hazard on ingestion result was “can be lethal” and the “irritation / harm” value is listed as “irritant that can be harmful if inhaled or spilled onto skin”.

As for `CN(C)C=O`, in data set [1] (MSDS, chronic exposure), the mutagenicity result is recorded as “may result in mutagenic effects”. In data set [1], the hazard on ingestion result was “may potentially cause liver damage”, the “irritation / harm” value is “irritant that can be harmful if inhaled or spilled onto skin” and the vapor pressure result is “low”.

In the case of tetraethyl glycol dimethyl ether, in data set [1], the carcinogenicity entry is reported as “not listed as a carcinogen”; the hazard on ingestion result is listed as “can be lethal”; the “irritation / harm” value is “irritant that can affect the skin, eyes, and digestive track”.

In the case of `NN`, the “recognized hazard” value in data set [1] is listed as “carcinogenic”.

The values are drawn from patent US20120273099A1, “REDUCED TOXICITY HYPERGOLIC PROPELLANTS” (published 2012).
